Test results as given in PubChem BioAssay AID871 (The Scripps Research Institute Molecular Screening Center, 2007).
This is a selection; strong and weak results do not stand in their true shares. The source made the active and inactive calls.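 How the source made its calls: active means activation above the screen-wide mean of compound activation plus 3 SD (cut at about 130% in these data); inactive means the rest.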

Assay: IL-6 driven STAT3 reporter potentiators, primary screen, U3A cells, luciferase, luminescence, MLSCN library (AID 871);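 further: 0% = background luminescence of wells with medium and substrate only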
Settings: IL-6 STAT3-luciferase reporter, at 5.6 µM, active compounds read high, 100% = signal with IL-6 EC80 alone
Method in brief: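 System – human U3A cells carrying STAT3-luciferase construct · Probe or stimulus – Interleukin-6, 33 ng/mL · Schedule – compound 1 h, then IL-6 6 h at 37 °C · Signal – luminescence from STAT3-driven luciferase reporter · Evaluation – percent of IL-6-only median luminescence · Benchmarks – IL-6-only high control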

Structure (SMILES)	activation (% of control)
CN(C)c1ccc(C(=O)NCC2(N3CCCCC3)CCCCC2)cc1	inactive: 102%
CCN1CCC(Nc2cccc(F)c2)CC1	inactive: 96.2%
COc1cc(OC)cc(C(=O)NCC2(N3CCOCC3)CCCCC2)c1	inactive: 103%
CCC(CO)(C(=O)OC1CN2CCC1CC2)c1ccccc1 (stereo not given)	inactive: 103%
CC(C)(C)OC(=O)N1CCC(Nc2ccccc2)CC1	inactive: 103%
CCOc1ncccc1C(=O)NCC1(N2CCOCC2)CCCCC1	inactive: 108%
O=C(OC1CN2CCC1CC2)C1c2ccccc2C=Cc2ccccc21 (stereo not given)	inactive: 106%
N/C(=N\O)c1c(N)no[n+]1[O-]	inactive: 93.3%
COc1ccc(C(=O)NCC2(N3CCOCC3)CCCCC2)cc1OC	inactive: 104%
c1ccc(CN2CCC(Nc3ccccc3)CC2)cc1	inactive: 101%
N#Cc1ccc(C(=O)NCC2(N3CCCCC3)CCCCC2)cc1	inactive: 93.1%
O=C(NCC1(N2CCOCC2)CCCCC1)c1cc(=O)[nH]c2ccccc12	inactive: 106%
CN1CCN(CCOC(=O)C(O)(c2ccccc2)c2ccccc2)CC1	inactive: 102%
COc1ccc(NC2CCN(C(=O)OC(C)(C)C)CC2)cc1	inactive: 104%
N#CC1(Nc2ccccc2)CCN(CCc2ccccc2)CC1	inactive: 104%
O=C(NCC1(N2CCCCC2)CCCCC1)c1cccc([N+](=O)[O-])c1	inactive: 104%
CN1CCC(Nc2cccc(F)c2)CC1	inactive: 109%
CC(C)c1ccc(NC2CCN(C(=O)OC(C)(C)C)CC2)cc1	inactive: 116%
COc1ccc(CN(CCCl)CCCl)cc1Cl	inactive: 102%
CN(C)c1cccc(C(=O)NCC2(N3CCCCC3)CCCCC2)c1	inactive: 107%
O=C(OC1CN2CCC1CC2)C1c2ccccc2Oc2ccccc21 (stereo not given)	inactive: 99.2%
CCOC(=O)N1CCC(Nc2ccc(OC)cc2)CC1	inactive: 95.2%
O=C(NCC1(N2CCOCC2)CCCCC1)c1cc2ccccc2o1	inactive: 112%
COc1ccc(C(=O)NCC2(N3CCCCC3)CCCCC2)c(OC)c1OC	inactive: 106%
COc1ccc(NC2CCN(CCc3ccccc3)CC2)c(OC)c1	inactive: 103%
